Results taken from patent US8518466B2 (Shenzhen Hazardous Waste Treatment Station Ltd., priority 2008, dated 2013).

System: weaned piglet
Conditions: in vivo

selenium covered basic copper chloride
copper content in liver among groups: almost the same | selenium content in liver, higher than the groups added with 0.3 mg/kg of sodium selenite (0.3 mg/kg): 9%
